Experimental data reported in article PMC6033295, “The Effects of the Honey-Roasting Process on the Pharmacokinetics of the Six Active Compounds of Licorice” (Evidence-based Complementary and Alternative Medicine : eCAM, 2018).

Experiments:
[1] = Stability of six compounds in rat plasma (QC samples); assay type: in vitro ADME; settings: n = 6
Experimental: The stabilities of the six compounds in rat plasma were evaluated by analyzing QC samples under different conditions. […] Long-term stability was tested by storing QC samples at -80°C for one month. RSD was evaluated by analyzing six replicate samples. The stability of the six compounds was evaluated under various conditions. QC samples stored in a freezer at -80°C remained stable for one month. […] The stability data were within the acceptance range of 85%-115% (Table 3).

[2] = Pharmacokinetic study in rats after oral administration of raw/honey-roasting licorice water decoction (UPLC-MS/MS of plasma); assay type: in vivo, Wistar rats; settings: for Cmax / Tmax / AUC0-24h: rat plasma, 2.7 g (crude drug)/kg, n = 5
Experimental: Healthy male Wistar rats (weighing 200 ± 20 g) were obtained from the Laboratory Animal Centre of Shanghai Jiao Tong University (Shanghai, China). […] All protocols and procedures were approved by the Shanghai Jiao Tong University Animal Care and Use Committee.
Chromatographic separation was performed on a ZORBAX Eclipse Plus C18 column (50 mm × 2.1 mm, 1.8 µm). […] The flow rate was set at 0.4 mL/min. The column temperature and injection volume were set at 40°C and 2.0 µL, respectively. An MS system operating in negative electrospray ionization mode was employed in this study. […] The DP for each compound and IS were -120, -100, -100, -100, -100, -80, and -100 V, respectively. The collision energy for each compound and IS were -58, -32, -42, -32, -32, -65, and -20 V, respectively. The ion spray needle voltage was set at -4500 V, and the source temperature was 500°C. Following optimization of the setting parameters, the ESI source was operated with the GS1, GS2, and CUR (Nitrogen) set at 35, 35, and 40 psi, respectively.
Fifty microliters of the plasma samples (or standard plasma samples and QC samples) were spiked with 5 µL of IS solution (10.00 µg/mL) and 200 µL of acetonitrile. The mixture was vortexed for 30 s and centrifuged at 14,000 rpm for 15 min at 4°C. The supernatant was collected and evaporated in a 37°C water bath under a nitrogen stream. The residue was redissolved with 500 µL of 70% acetonitrile.
After being housed in a controlled environment for a week, rats were randomly divided into three groups (n = 5 for each group) and were then orally administered a raw, 25% honey-roasting, or 50% honey-roasting licorice water decoction at a dosage of 2.7 g (crude drug)/kg. Blood samples of 0.15 mL were taken from the suborbital vein into heparinized tubes at 0.17, 0.5, 1, 1.5, 2, 2.5, 3, 4, 6, 8, 12, and 24 h after oral administration of the licorice water decoction. The blood samples were immediately centrifuged at 10,000 rpm for 15 min. The separated plasma samples were frozen at -80°C before analysis.
The pharmacokinetic parameters of the six compounds were calculated by […] 4.4.1 (Thermo Electron Corporation, Philadelphia, PA, USA) software. […] Data were presented as the mean ± SD. Statistical analyses of all the data obtained were evaluated using one-way ANOVA (SPSS 17.0).

[3] = oral 25% honey-roasting licorice water decoction
[4] = oral 50% honey-roasting licorice water decoction
[5] = oral raw licorice water decoction

## liquiritin apioside [LA]
[1]; At 4°C for 24 h, postpreparative QC sample in autosampler, high concentration level
  Stability, Average: 98.3%
[1]; At 4°C for 24 h, postpreparative QC sample in autosampler, low concentration level
  Stability, Average: 97.3%
[1]; At 4°C for 24 h, postpreparative QC sample in autosampler, medium concentration level
  Stability, Average: 92.4%
[1]; At -80°C for 1 month, rat plasma QC sample, high concentration level
  Stability, Average: 95.3%
[1]; At -80°C for 1 month, rat plasma QC sample, low concentration level
  Stability, Average: 93.2%
[1]; At -80°C for 1 month, rat plasma QC sample, medium concentration level
  Stability, Average: 93.7%
[2]; 50% honey-roasting group vs raw licorice group, rat, oral
  Cmax lower than in the raw licorice group: 43.7%
[2]; [3]
  Cmax: 38.49 ± 13.09 ng/mL
  Tmax: 48 min
[2]; [4]
  AUC0-24h: 56.30 ± 14.34 ng·h/mL
  Cmax: 31.21 ± 8.09^∗ ng/mL
  Tmax: 54 min
[2]; [5]
  AUC0-24h: 82.31 ± 19.00 ng·h/mL
  Cmax: 55.46 ± 13.51 ng/mL
  Tmax: 42 min
